Target: Cholecystokinin receptor (Homo sapiens) (UniProt P32239+P32238)
Experiment: Antagonist activity at CCK receptor by inhibition of CCK8-induced muscle contraction in unstimulated GPI/LMMP
Assay type: functional
Settings: Cavia porcellus; target entry is the homologue from another species
How it was run: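 Male Hartley guinea pig ileum LMMP strips, 1 g tension, oxygenated Krebs bicarbonate buffer, 37 °C; 67 mM KCl sets maximal contractility. Initial noncumulative CCK-8 dose-response curve built. Test compound added without electrical stimulation; 3 min later the CCK-8 curve was rebuilt at an antagonist dose giving about a 3-fold rightward shift. Ke is the antagonist concentration halving CCK-8 activity.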

The chains behind the UniProt entries cited, without tags or fusion partners. Where a name states a change or a piece, a line headed by the entry shows the natural chain unless it says otherwise.
UniProt P32239: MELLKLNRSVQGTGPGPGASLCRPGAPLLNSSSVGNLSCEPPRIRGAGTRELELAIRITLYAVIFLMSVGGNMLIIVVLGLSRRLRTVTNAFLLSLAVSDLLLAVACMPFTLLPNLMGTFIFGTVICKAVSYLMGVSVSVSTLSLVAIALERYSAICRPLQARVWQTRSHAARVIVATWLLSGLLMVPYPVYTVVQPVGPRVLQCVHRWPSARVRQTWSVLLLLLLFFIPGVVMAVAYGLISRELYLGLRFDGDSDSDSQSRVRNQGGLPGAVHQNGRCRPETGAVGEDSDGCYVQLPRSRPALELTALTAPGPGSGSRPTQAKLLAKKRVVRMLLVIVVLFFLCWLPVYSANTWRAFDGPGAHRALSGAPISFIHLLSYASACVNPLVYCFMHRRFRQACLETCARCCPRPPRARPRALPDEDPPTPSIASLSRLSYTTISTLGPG
UniProt P32238, whole entry, looked up: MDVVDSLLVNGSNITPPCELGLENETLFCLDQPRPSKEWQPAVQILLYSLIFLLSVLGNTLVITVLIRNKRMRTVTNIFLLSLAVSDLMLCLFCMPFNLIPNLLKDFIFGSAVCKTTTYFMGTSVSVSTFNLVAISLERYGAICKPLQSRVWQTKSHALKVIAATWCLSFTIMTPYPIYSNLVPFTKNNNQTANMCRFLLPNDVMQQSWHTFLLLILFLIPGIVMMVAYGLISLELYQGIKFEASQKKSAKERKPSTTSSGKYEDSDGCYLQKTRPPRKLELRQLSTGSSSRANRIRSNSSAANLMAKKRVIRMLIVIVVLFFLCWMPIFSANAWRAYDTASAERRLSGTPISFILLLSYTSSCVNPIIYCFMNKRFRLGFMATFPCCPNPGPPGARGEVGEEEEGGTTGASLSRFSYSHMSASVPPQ

## CCCC[C@H](NC(=O)[C@H](CC(=O)O)NC(=O)[C@H](Cc1ccccc1)NN[C@@H](Cc1ccccc1)C(=O)NCC(=O)N[C@H](C)C(=O)N[C@@H](Cc1ccc(O)cc1)C(=O)O)C(=O)N[C@H](Cc1cn(C(=O)OC2C3CC4CC(C3)CC2C4)c2ccccc12)C(=O)O (stereo partly specified)
  Ke: 150 nM
